The record followed here is PubChem BioAssay (Tox21).

By UniProt entry, the sequences of proteins in these tests, tags left out. Where a name states a change or a piece, a line headed by the entry shows the natural chain unless it says otherwise.
UniProt Q92731, whole entry, looked up: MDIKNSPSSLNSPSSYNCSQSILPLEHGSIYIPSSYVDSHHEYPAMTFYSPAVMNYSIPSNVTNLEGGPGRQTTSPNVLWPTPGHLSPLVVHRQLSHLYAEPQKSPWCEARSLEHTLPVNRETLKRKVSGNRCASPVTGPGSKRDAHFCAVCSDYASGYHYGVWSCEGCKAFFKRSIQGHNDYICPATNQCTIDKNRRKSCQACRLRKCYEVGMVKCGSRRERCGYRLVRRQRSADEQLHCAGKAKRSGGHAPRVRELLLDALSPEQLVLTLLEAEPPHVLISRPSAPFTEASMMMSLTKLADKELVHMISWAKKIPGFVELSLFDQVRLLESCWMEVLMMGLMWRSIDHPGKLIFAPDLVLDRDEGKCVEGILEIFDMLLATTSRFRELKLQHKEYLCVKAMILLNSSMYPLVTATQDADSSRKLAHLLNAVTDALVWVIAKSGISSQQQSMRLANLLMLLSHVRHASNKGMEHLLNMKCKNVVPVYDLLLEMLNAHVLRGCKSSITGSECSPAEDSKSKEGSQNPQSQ
UniProt P10275: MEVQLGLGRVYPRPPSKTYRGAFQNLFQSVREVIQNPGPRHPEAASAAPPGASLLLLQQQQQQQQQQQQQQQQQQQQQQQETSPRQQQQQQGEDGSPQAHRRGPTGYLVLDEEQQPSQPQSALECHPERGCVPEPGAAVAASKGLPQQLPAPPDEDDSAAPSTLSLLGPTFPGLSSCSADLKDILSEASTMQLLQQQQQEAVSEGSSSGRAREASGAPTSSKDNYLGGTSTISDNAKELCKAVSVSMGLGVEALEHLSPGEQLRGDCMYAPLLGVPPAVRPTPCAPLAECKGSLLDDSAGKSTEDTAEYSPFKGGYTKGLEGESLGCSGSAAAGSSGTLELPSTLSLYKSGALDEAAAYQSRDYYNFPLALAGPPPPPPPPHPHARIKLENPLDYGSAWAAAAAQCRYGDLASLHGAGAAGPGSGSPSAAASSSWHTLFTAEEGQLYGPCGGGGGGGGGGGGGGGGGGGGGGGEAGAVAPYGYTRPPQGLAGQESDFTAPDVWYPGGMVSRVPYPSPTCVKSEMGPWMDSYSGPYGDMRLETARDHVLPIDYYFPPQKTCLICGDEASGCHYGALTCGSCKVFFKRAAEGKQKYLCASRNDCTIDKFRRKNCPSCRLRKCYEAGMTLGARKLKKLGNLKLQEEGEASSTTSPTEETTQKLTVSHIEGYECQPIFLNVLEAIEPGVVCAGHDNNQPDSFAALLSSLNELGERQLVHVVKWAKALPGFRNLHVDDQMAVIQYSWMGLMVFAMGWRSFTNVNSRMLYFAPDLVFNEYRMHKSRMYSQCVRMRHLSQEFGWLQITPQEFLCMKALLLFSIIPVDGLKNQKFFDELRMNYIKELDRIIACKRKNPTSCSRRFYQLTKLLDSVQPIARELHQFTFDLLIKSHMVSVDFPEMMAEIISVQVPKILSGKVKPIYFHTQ
UniProt P03372, whole entry, looked up: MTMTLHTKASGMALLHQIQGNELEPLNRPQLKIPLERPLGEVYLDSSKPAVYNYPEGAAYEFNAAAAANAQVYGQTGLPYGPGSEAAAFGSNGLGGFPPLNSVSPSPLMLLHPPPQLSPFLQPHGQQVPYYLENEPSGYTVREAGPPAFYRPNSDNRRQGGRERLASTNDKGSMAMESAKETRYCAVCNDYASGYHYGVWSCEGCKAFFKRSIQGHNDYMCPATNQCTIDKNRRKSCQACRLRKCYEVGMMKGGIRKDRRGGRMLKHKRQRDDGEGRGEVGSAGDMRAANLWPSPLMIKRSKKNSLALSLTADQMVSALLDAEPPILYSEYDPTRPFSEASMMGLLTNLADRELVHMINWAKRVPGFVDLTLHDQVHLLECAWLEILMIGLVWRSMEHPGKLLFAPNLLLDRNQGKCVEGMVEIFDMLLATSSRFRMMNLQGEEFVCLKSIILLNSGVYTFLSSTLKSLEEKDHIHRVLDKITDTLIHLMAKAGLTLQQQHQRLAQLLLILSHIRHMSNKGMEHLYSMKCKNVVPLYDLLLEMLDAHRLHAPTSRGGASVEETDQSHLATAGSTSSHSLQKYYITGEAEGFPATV
UniProt Q96RI1: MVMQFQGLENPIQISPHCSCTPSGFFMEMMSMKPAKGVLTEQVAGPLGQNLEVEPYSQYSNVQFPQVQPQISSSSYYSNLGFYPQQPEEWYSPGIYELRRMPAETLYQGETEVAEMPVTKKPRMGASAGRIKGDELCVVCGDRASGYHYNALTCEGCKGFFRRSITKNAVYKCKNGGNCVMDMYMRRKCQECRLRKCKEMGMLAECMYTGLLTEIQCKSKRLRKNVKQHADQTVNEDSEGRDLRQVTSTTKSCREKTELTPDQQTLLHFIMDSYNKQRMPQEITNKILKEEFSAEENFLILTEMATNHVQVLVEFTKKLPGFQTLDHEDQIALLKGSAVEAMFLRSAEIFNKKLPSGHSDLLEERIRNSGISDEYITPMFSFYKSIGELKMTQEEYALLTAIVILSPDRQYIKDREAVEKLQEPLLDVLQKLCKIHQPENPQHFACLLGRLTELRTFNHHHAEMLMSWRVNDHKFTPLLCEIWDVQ
UniProt P11511: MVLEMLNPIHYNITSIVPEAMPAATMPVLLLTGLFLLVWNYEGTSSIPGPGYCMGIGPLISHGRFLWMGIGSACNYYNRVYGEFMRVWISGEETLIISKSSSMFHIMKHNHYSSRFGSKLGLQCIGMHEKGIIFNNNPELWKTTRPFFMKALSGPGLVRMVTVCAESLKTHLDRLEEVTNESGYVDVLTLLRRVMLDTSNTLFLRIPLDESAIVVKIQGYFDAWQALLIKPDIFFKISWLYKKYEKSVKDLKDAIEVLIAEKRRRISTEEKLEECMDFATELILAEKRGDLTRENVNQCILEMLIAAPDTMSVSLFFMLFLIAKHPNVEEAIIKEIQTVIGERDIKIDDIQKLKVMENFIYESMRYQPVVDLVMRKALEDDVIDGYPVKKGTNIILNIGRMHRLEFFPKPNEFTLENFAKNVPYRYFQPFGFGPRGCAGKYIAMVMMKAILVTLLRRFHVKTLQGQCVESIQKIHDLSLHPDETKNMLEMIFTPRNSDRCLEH

The nature of assay [1]: qHTS assay to identify small molecule agonists of the NFkB signaling pathway (AID 1159509; active = well fitted curve in the direction sought with a large enough effect in the signal ratio in the repeat runs, not every such curve was filed as active; the % refers to the signal ratio). The conditions noted are these: NFkB-bla ME-180 cells, beta-lactamase FRET ratio, 5 h; at 61 µM (top of the series) unless noted. In short, it runs like this: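 NFkB-bla ME-180 cells with a beta-lactamase reporter under an NF-kB response element were plated overnight, treated with compounds in DMSO for 5 hr at 37 C, then loaded with FRET substrate for 1.5 hr at room temperature.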
For orientation: In qHTS, concentration-response curves come from the screen itself.

The nature of assay [2]: qHTS assay to identify small molecule antagonists of the retinoic acid receptor (RAR) signaling pathway (AID 1159552; also: nearly all actives have a fitted effect of over 50% in size; also: potency is read from the fitted curve at half-maximal effect). In short, it runs like this:
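C3RL4 RARE-luc cells, overnight plating; retinol 1 uM final added right after compound; 6 hr 37 C; luciferase read at 30 min RT.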

Assay [3] concerns the target Estrogen receptor beta (Homo sapiens) (UniProt Q92731). In words: qHTS assay to identify small molecule antagonists of the estrogen receptor beta (ER-beta) signaling pathway (AID 1259378; active = well fitted inhibition curve with a large enough effect in the signal ratio in the repeat runs, not every such curve was filed as active; the % refers to the signal ratio). The method in brief: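 ER-beta-UAS-bla HEK293T (GripTite) cells in 2% charcoal-stripped FBS medium were preincubated 6 hr at 37C, dosed with compound, then stimulated with 1 nM E2 (final) for 16 hr; beta-lactamase reporter read by B/G FRET fluorescence after 2 hr substrate loading.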

Assay [4] deals with Androgen receptor (Homo sapiens) (UniProt P10275). In words: qHTS assay to identify small molecule agonists of the androgen receptor (AR) signaling pathway using the MDA cell line (AID 743040; also: nearly all actives have a fitted effect of over 20% in size). The following applies: MDA-kb2 AR-luc cells, MMTV luciferase, 16 h; at 70.3 µM (top of the series); stronger effect = higher value.
Assay [5] concerns the target Estrogen receptor (Homo sapiens) (UniProt P03372). In words: qHTS assay to identify small molecule antagonists of the estrogen receptor alpha (ER-alpha) signaling pathway (AID 743069; active = well fitted curve in the direction sought with a large enough effect in the signal ratio in the repeat runs, not every such curve was filed as active; the % refers to the signal ratio; also: potency is read from the fitted curve at half-maximal effect).
For assay [6] the target is unchanged. Kind of assay: qHTS assay to identify small molecule agonists of the estrogen receptor alpha (ER-alpha) signaling pathway (AID 743075; calls by dose curve).
A short description of assay [7]: qHTS assay to identify small molecule agonists of the NFkB signaling pathway - cell viability counter screen (AID 1159515; calls by dose curve; also: nearly all actives have a fitted effect of over 55% in size; also: potency is read from the fitted curve at half-maximal effect). In short, it runs like this: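 Luminescence from CellTiter-Glo (30 min, room temperature) gives viability, measured in the same wells as the beta-lactamase reporter read. Cells were NFkB-bla ME-180, 2,000 per well, treated 5 hr with compounds.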

Assay [8] deals with Androgen receptor (Homo sapiens) (UniProt P10275). Kind of assay: qHTS assay to identify small molecule agonists of the androgen receptor (AR) signaling pathway in the presence of an antagonist (AID 1259381; calls by dose curve; also: nearly all actives have a fitted effect of over 15% in size).
Assay [9] has as its target Estrogen receptor (Homo sapiens) (UniProt P03372). In words: qHTS assay to identify small molecule agonists of the estrogen receptor alpha (ER-alpha) signaling pathway in the presence of an antagonist (AID 1259383; calls by dose curve; also: top concentration of the series differs between compounds; nearly all actives have a fitted effect of over 15% in size).
The target in assay [10] is Nuclear receptor subfamily 1 group I member 2 (Homo sapiens) (UniProt O75469). Kind of assay: Human pregnane X receptor (PXR) small molecule agonists, qHTS assay (AID 1346982). Also: nearly all actives have a fitted effect of over 35% in size. In short, it runs like this: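 Luciferase signal from ONE-Glo (30 min, room temperature) measured activation of hPXR-driven CYP3A4 reporter expression in PXR-Luc HepG2 cells treated with compounds for 24 hr at 37 C.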

For assay [11], the target named is Bile acid receptor (Homo sapiens) (UniProt Q96RI1). Kind of assay: qHTS assay to identify small molecule antagonists of the farnesoid-X-receptor (FXR) signaling pathway (AID 743217; active = well fitted inhibition curve with a large enough effect in the signal ratio in the repeat runs, not every such curve was filed as active; the % refers to the signal ratio). The conditions noted are these: HEK293T FXR-UAS-bla, beta-lactamase ratio, CDCA-stimulated, 16 h. In short, it runs like this:
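HEK 293T FXR-UAS-bla, 5000 cells/well; compound + CDCA 50 uM final; 16 h, 37 °C; B/G FRET substrate 2 h RT; fluorescence.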

The target is the same in assay [12]. Kind of assay: qHTS assay to identify small molecule agonists of the farnesoid-X-receptor (FXR) signaling pathway (AID 743220; active = well fitted activation curve with a large enough effect in the signal ratio in the repeat runs, not every such curve was filed as active; the % refers to the signal ratio). The following applies: HEK293T FXR-UAS-bla, beta-lactamase FRET ratio, 16 h.
Another assay addresses Aromatase (Homo sapiens) (UniProt P11511). Kind of assay: qHTS assay to identify aromatase inhibitors (AID 743083). Also: nearly all actives have a fitted effect of over 55% in size. The following applies: MCF-7 aro ERE, testosterone-driven ERE luciferase, 24 h; at 70.3 µM (top of the series).
Assay [13] deals with Nuclear receptor subfamily 1 group I member 2 (Homo sapiens) (UniProt O75469). In words: Human pregnane X receptor (PXR) activation by small molecules, qHTS assay (AID 1346985). Also: nearly all actives have a fitted effect of over 40% in size.
Assay [14] has as its target Estrogen receptor (Homo sapiens) (UniProt P03372). Kind of assay: qHTS assay to identify small molecule agonists of the estrogen receptor alpha (ER-alpha) signaling pathway using the BG1 cell line (AID 743079). Also: nearly all actives have a fitted effect of over 20% in size.
The target is the same in assay [15]. In words: qHTS assay to identify small molecule antagonists of the estrogen receptor alpha (ER-alpha) signaling pathway using the BG1 cell line in the presence of 0.1 nM 17-beta-estradiol (AID 1259244). Also: nearly all actives have a fitted effect of over 50% in size. The conditions noted are these: VM7Luc4E2 (BG1) ERE-luciferase, antagonist mode, 0.1 nM E2, 22 h.
For assay [16], the target named is Nuclear receptor subfamily 1 group I member 2 (Homo sapiens) (UniProt O75469). Kind of assay: CYP3A4 induction through human pregnane X receptor (PXR) by small molecules, qHTS assay (AID 1346984). Also: nearly all actives have a fitted effect of over 40% in size. The method in brief:
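Luminescence readout: luciferase signal after One-Glo (30 min, room temperature), following 3 h at 37C with 3uM final Luciferin-IPA P450 substrate. Cells were DPX-2 (HepG2, PXR/CYP3A4-luc co-transfected) dosed for 24 h.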

Several values for one entry are separate records, joined by “and”; a condition that tells them apart may be missing. Identical values can stand only once. For some assays here: The hits were mostly taken out for another list; the other results follow. Results filed as inconclusive are left out. More than one record can exist for a structure, and the calls need not agree. The entries are a selection whose mix differs from that of the whole data set. Activity calls are given as the source filed them. Unless noted, calls follow the shape of the dose curve; as a rule, active = well fitted curve in the direction sought with a large enough effect in the repeat runs; inconclusive = weak or mixed curves; inactive = no such curve, though single readings can be large; an effect the other way counts as inactive or inconclusive.
% is scaled to controls: 0 for no effect and ±100 for the full control effect.

As to `CN1CCN(Cc2cc(-c3ccc4[nH]c(=O)oc4c3)co2)[C@@H](c2ccc(F)cc2)C1`, the activation in [1] was inactive: 0.914%.

For the molecule `CC(C)C[P+](C)(CC(C)C)CC(C)C`, the activation in assay [1] is inactive: -0.19% [at 78.8 µM].

Take `OC[C@H]1O[C@H](O[C@H]2O[C@H](CO)[C@@H](O)[C@H](O)[C@H]2O)[C@H](O)[C@@H](O)[C@@H]1O`: the activation in assay [1] is inactive: -0.261% [at 78.8 µM]. The Potency result in assay [2] and in assay [3] was “inactive” throughout.

Turning to `C[N+]12CCC(CC1)C(OC(=O)C(O)(c1ccccc1)c1ccccc1)C2` (stereo unspecified), the activation in assay [1] was inactive: -0.352%. Further, in assay [3], the Potency result was “inactive”.

As for `NCCCC(N)(C(=O)O)C(F)F` (stereo unspecified), the activation in assay [1] was inactive: -0.281%. Besides, the Potency entry in assay [2] and in assay [3] was “inactive” in each case.

Take `NC(=NCCCCCCN=C(N)/N=C(\N)Nc1ccc(Cl)cc1)/N=C(\N)Nc1ccc(Cl)cc1`: in [4], the activity change was active: -10.9% [middle of 5 runs]. Also, the Potency is active: 15.8 µM [cytotoxic] [middle of 4 runs] in [5]; active: 34.3 µM and active: 43.4 µM and inactive in assay [7]. In addition, the Potency entry in assay [6], in [8] and in assay [9] was “inactive” throughout.

Regarding `CC(=O)O[C@H]1C[C@@H]2CC[C@@H]3[C@H](CC[C@@]4(C)[C@H]3C[C@H]([N+]3(C)CCCCC3)[C@@H]4OC(C)=O)[C@@]2(C)C[C@@H]1N1CCCCC1`, in [1], the activation was inactive: -0.402%. In addition, in assay [3], the Potency result is “inactive”.

As for `FB(F)F`, the activation in [1] is inactive: -1.13% [at 78.8 µM]. Further, the Potency entry in [2] and in assay [3] was “inactive” each time.

On to `COc1cc2c(cc1OC)-c1cc3ccc(OC)c(OC)c3c[n+]1CC2`, for which the activation in assay [1] was inactive: -0.0066% [at 78.8 µM]. Besides, the Potency entry in assay [3] was “inactive”.

For the molecule `C[C@H](N)[C@H](O)c1cccc(O)c1`, the Potency entry in assay [2] is “inactive”.

Regarding `Cc1ncc(COP(=O)(O)O)c(C=O)c1O`, in [1], the activation is inactive: -0.212%. Further, the Potency result in assay [2] and in assay [3] was “inactive” in each case.

As to `CC(C(=O)O)c1cccc(Oc2ccccc2)c1` (stereo unspecified), in [1], the activation is inactive: 0.176%. The Potency entry in [2], in [3] and in assay [10] was “inactive” in each case.

In the case of `CN(C)C(=O)Oc1cccc([N+](C)(C)C)c1`, the activation in assay [1] is inactive: -0.116%. In addition, the Potency result in assay [2] and in assay [3] was “inactive” in each case.

Turning to `CCCCCCCCCCCC[N+](C)(C)CCCCCCCCCCCC`, in assay [2], the Potency is active: 17.2 µM.

With `CCN(CCO)CCCC(C)Nc1ccnc2cc(Cl)ccc12` (stereo unspecified), the activity change, negative = inhibition in assay [11] (at 5.95 µM (top of the series)) was inactive: 6.4%. In addition, the activation in [12] (at 5.95 µM (top of the series)) is inactive: -1.34%; in [1], inactive: 0.161% [at 6.95 µM]. The activity, negative = inhibition in assay [3] is inactive: -2.29% [at 8.39 µM].

`NCCCC(O)(P(=O)(O)O)P(=O)(O)O`: the activity, negative = inhibition with Aromatase (Homo sapiens) was inactive: -4.03%. Further, the activation in assay [1] was inactive: -0.378%. In addition, the Potency result in assay [3], in assay [10] and in assay [13] was “inactive” each time.

As to `CCCn1cc[n+](C)c1C`, the Potency result in [2] is “inactive”.

`CC(=O)Nc1c(I)c(NC(C)=O)c(I)c(C(=O)O)c1I`: the Potency entry in [2] is “inactive”.

`CCOc1ccc2ccccc2c1C(=O)N[C@@H]1C(=O)N2[C@@H]1SC(C)(C)[C@@H]2C(=O)O`: in assay [1], the activation is inactive: -0.987%. For the same molecule, the Potency result in assay [2] and in [3] was “inactive” each time.

Regarding `CC[N+](CC)(CC)CCOc1ccc(/C=C/c2ccccc2)cc1`, in assay [2], the Potency result is “inactive”.

Take `CC[N+](C)(CC)CCOC(=O)C(O)(c1ccccc1)C1CCCCC1` (stereo unspecified): in assay [1], the activation was inactive: -0.82%. Moreover, the Potency result in assay [2] and in assay [3] was “inactive” each time.

As for `CCCCCC(C)N` (stereo unspecified), the Potency entry in [5], in assay [6], in assay [14], in assay [3] and in assay [9] was “inactive” throughout. The activity change, negative = inhibition in assay [11] (at 62.6 µM (top of the series)) is inactive: 19.2%; in assay [15] (at 42.5 µM (top of the series)), inactive: 0.248%. In addition, the results for the activation in assay [12] (at 62.6 µM (top of the series)) and in assay [1] were inactive: -0.527% and inactive: -0.254%, respectively.

`NC[C@H]1O[C@H](O[C@H]2[C@H](O)[C@@H](O[C@H]3O[C@H](CO)[C@@H](O)[C@H](N)[C@H]3O)[C@H](N)C[C@@H]2N)[C@H](O)[C@@H](O)[C@@H]1O`: the Potency entry in assay [5], in assay [6] and in assay [14] was “inactive” each time. The activation is inactive: 0.0722% [at 6.95 µM] in assay [1] and inactive: -0.0169% [at 8.39 µM] in [9]. In addition, the activity change, negative = inhibition in assay [15] (at 8.39 µM (top of the series)) is inactive: 8.83%.

With `COc1ccc2cc1Oc1cc3c(cc1OC)CC[N+](C)(C)[C@H]3Cc1ccc(cc1)Oc1c(OC)c(OC)cc3c1[C@@H](C2)[N+](C)(C)CC3`, the Potency result in assay [2] is “inactive”.

Consider `CCCN[C@H]1CCc2nc(N)sc2C1`, for which the activation in assay [1] was inactive: -0.809% [at 78.8 µM]. Further, the Potency entry in assay [10], in assay [16] and in [13] was “inactive” in each case.

Consider `CCN[C@@H]1C[C@H](N)[C@@H](OC2OC(CN)=CCC2N)[C@H](O)[C@H]1O[C@H]1OC[C@](C)(O)[C@H](NC)[C@H]1O` (stereo partly specified), for which the Potency entry in assay [5], in assay [6] and in [14] was “inactive” throughout. The activation in [1] is inactive: -0.0288% [at 0.628 µM]; in assay [9], inactive: 0.71% [at 0.349 µM]. The activity change, negative = inhibition in assay [15] (at 0.349 µM (top of the series)) is inactive: -0.432%. For the same molecule, the activity, negative = inhibition in assay [3] was inactive: 15.4% [at 0.349 µM].

Take `NC[C@H]1O[C@H](O[C@H]2[C@H](O[C@@H]3O[C@H](CO)[C@@H](O)[C@H]3O)C(O)[C@H](N)C[C@@H]2N)[C@H](N)[C@@H](O)[C@@H]1O` (stereo partly specified): in assay [11] (at 13.2 µM (top of the series)), the activity change, negative = inhibition is inactive: 5.06%. For the same molecule, the results for the activation in assay [12] (at 13.2 µM (top of the series)) and in assay [1] were inactive: 1.05% and inactive: -0.607% [at 6.95 µM], respectively. The activity, negative = inhibition in assay [3] is inactive: 3.52% [at 8.39 µM]. Besides, the Potency entry in assay [16] and in [13] was “inactive” throughout.
